From ChEMBL document CHEMBL5579834 (Eur J Med Chem, 2024) come the findings set out here.

A short description of this series: Stability of the compound in whole blood (unknown origin) assessed as fold reduction in relative peak area measured within 2 hrs by chromatographic/mass spectrometric analysis.

Each structure is given as a SMILES string.

For the compound `CN1CCN(CCCC(=O)O[C@H]2C(C)(C)[C@H]3CC[C@]2(C)C3)CC1`, the fold change (FC) was found to be 2.
